Assay results published in ChEMBL document CHEMBL5543146 (J Med Chem, 2024).

Sequences of proteins named here, by UniProt entry; tags and fusion partners are left off.
UniProt P22455, whole entry, looked up: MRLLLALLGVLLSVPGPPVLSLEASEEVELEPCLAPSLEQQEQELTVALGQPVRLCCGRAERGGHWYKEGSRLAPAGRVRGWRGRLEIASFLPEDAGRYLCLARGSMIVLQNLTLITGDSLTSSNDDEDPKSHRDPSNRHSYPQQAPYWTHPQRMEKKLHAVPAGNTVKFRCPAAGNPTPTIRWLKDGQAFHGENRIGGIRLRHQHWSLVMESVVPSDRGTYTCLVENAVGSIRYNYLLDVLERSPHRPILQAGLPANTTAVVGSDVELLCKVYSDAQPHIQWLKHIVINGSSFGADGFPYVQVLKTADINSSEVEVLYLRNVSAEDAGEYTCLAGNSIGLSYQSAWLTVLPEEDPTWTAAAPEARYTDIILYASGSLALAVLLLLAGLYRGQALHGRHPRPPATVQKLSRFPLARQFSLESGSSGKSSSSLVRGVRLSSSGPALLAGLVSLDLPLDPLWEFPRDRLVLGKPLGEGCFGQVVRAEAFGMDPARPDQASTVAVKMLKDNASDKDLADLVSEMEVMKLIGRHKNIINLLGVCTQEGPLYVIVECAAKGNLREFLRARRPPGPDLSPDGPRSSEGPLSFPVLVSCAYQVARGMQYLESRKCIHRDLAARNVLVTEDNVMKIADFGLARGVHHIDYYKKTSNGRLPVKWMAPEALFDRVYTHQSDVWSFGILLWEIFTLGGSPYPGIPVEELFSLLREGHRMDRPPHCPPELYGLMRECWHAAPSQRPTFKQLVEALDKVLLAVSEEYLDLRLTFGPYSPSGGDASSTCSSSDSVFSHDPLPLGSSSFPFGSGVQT

Biological target: Fibroblast growth factor receptor 4 (Homo sapiens, UniProt P22455)

COc1cc(OC)cc(-c2ccc3nc(Nc4nc(Cl)ccc4[N+](=O)[O-])ncc3c2)c1
Kinact: 1.7 10^-3/s
